The numbers were not newly measured in patent US11987604B2, “Fusion-proteins based on human ferritin and protease-cleavable peptides and their use as chemotherapeutics carriers” (THENA BIOTECH S.R.L., priority 2017, dated 2024), which cites them from elsewhere.

For this data set the following is noted: injected through the systemic route; cited from earlier work.

Turning to “native HFt: Heavy chain of native human ferritin, SEQ ID NO 1, 24-mer nanoparticle”, the plasma half-life is 2 to 3 h.
